{
  "source": "paper PMC4413051",
  "about": "“Glutamate 338 is an electrostatic facilitator of C–Co bond breakage in a dynamic/electrostatic model of catalysis by ornithine aminomutase” (The Febs Journal, 2015)",
  "tested_on": "NCCC[C@@H](N)C(=O)O",
  "test": "purified protein",
  "conditions": "100 nM holo-OAM with PLP and AdoCbl, 100 nM DAPDH, 0.5 mM NAD+, 25 °C, anaerobic",
  "data": [
    {"substance": "ornithine 4,5-aminomutase (OAM) (Acetoanaerobium sticklandii DSM 519; E335D)", "values": [
      {"measurement": "Km", "result": "135.2 ± 8.2", "unit": "µM"},
      {"measurement": "kcat", "result": 0.34, "unit": "s⁻¹"},
      {"measurement": "kcat/Km", "result": 2500, "unit": "M⁻¹ s⁻¹"}
    ]},
    {"substance": "ornithine 4,5-aminomutase (OAM) (Acetoanaerobium sticklandii DSM 519; E335Q)", "values": [
      {"measurement": "Km", "result": "148.3 ± 11.6", "unit": "µM"},
      {"measurement": "kcat", "result": 0.56, "unit": "s⁻¹"},
      {"measurement": "kcat/Km", "result": 3800, "unit": "M⁻¹ s⁻¹"}
    ]}
  ]
}
